Measured affinities in a library of Ab-95 light chain variants

The measurements come from Engelhart et al. 2022 (doi:10.1038/s41597-022-01779-4) through the FLAb antibody collection.

Binding partner: SARS-CoV-2 spike HR2 peptide, sequence PDVDLGDISGINAS.

Ab-95 is the parent antibody, in scFv form: VH, then a (GGGGS)3 linker, then VL. The heavy chain is unchanged in all variants.
VH: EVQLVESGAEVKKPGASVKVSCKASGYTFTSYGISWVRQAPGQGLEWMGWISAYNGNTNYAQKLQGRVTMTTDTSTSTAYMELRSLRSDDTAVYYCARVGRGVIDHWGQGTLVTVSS
VL: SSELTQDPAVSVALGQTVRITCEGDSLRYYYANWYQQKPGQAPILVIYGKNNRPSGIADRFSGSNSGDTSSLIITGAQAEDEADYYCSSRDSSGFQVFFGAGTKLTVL

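Phage display of a naive human antibody library on the peptide gave the parent. The library (AAYL52) carries one to three amino acid substitutions per variant, with no insertions or deletions. The assay is AlphaSeq: two haploid yeast populations carry antibody and antigen on their surface. The frequency of each diploid, read from paired DNA barcodes, reflects how well the two displayed proteins bind. A regression on co-assayed BCL2-family reference pairs converts the normalised counts of each replicate to an apparent Kd. There are three technical replicates.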

Substitutions are numbered in sequence along the VL above, starting at 1 (not Kabat).
Kd is apparent (estimated from mating counts) and averaged on the log scale over replicates with a signal. Smaller is tighter.
"no signal" marks a missing value. The strain was present, yet no cells mated with the target were sequenced in any replicate, which points to weak or no binding.
In this assay the parent's reference entry averaged 200 nM; its copy inside this library read 180 nM.
As a blank, each scFv also met three strains without target: over library AAYL52, 28% of these pairings were detected, typically at 8.2 µM and seldom below 800 nM.

changes | Kd (apparent) | detected
Y29C G49R S89M | 16 µM | 2 of 3
Y29N R90E S93K | 22 µM | 1 of 3
G49M P54T F98R | 130 µM | 2 of 3
D25I K50S V97Q | 3.5 µM | 2 of 3
D25M A32R S89A | 23 µM | 2 of 3
E23G F98T | 67 nM | 3 of 3
S26D R28M V97T | 1.8 µM | 2 of 3
P54H R90A S92T | no signal | 0 of 3
Y31K S55D R90I | 170 nM | 3 of 3
E23P R28P P54Y | 1.6 µM | 1 of 3
D25F G49H | 990 nM | 1 of 3
Y29S R53Q S93V | 52 µM | 1 of 3
G24W N52P F95T | 6.1 µM | 2 of 3
R53K F98Y | 590 nM | 3 of 3
Y29T K50F | 680 nM | 3 of 3
R28S N51D S92L | 210 nM | 3 of 3
G24I N51I R53D | no signal | 0 of 3
Y31K S55E D91H | 2.3 µM | 3 of 3
Y30N A32T S88H | no signal | 0 of 3
N33V F98L | 5.2 µM | 1 of 3
S26F K50V V97T | 10 µM | 1 of 3
D25N S26F R90V | 9.1 µM | 1 of 3
S89C S93W V97Y | 2.5 µM | 2 of 3
K50S D91T V97D | 790 nM | 3 of 3
R28D S55W | 2.7 µM | 3 of 3
S26G K50L P54K | 2.4 µM | 1 of 3
E23K A32Q S92M | 11 µM | 3 of 3
G24C G94V | 940 nM | 3 of 3
G49M S89H V97W | no signal | 0 of 3
G24R Y31N S55V | 120 nM | 3 of 3
Y31I S55F S89G | 650 nM | 3 of 3
S26N N52M D91W | 2.1 µM | 3 of 3
Y29R K50C F95C | 5.1 µM | 3 of 3
G49A N51Q G94R | 240 µM | 1 of 3
Y31Q A32K D91H | 1.8 µM | 3 of 3
E23F P54N R90C | 2.1 µM | 2 of 3
G24R N51W F98L | no signal | 0 of 3
D25A N52G R53Y | 1.4 µM | 1 of 3
G49C K50Q S93G | 17 µM | 2 of 3

Continued, with the values leading:

Kd (apparent) | detected | changes
7.9 µM | 3 of 3 | S55R R90V D91N
3.2 µM | 2 of 3 | S26M R53P V97A
4.9 µM | 3 of 3 | A32H N51T
no signal | 0 of 3 | N52Y S55F Q96F
no signal | 0 of 3 | Y30C R53F P54K
62 µM | 2 of 3 | L27C Y30T
130 µM | 2 of 3 | S26M A32Y S93F
no signal | 0 of 3 | Y30F Y31W F95E
5.3 µM | 3 of 3 | G24F S26A S92M
no signal | 0 of 3 | N51V N52I P54D
18 µM | 2 of 3 | D25G N33P K50I
4.7 µM | 3 of 3 | G49S Q96C V97Q
83 µM | 2 of 3 | G24V G49V R53N
16 µM | 2 of 3 | Y29D N33Y
17 µM | 1 of 3 | E23F N52M G94S
11 µM | 1 of 3 | N33S G49C R53Y
2.4 µM | 3 of 3 | Y31N A32Y R53K
no signal | 0 of 3 | R28L R53Q S93G
no signal | 0 of 3 | R53W D91A
3.3 µM | 3 of 3 | K50F F95V F98G
2.9 µM | 2 of 3 | K50I R53H S88A
110 µM | 2 of 3 | Y30K N51P F98H
7.5 µM | 2 of 3 | E23P Y30P S92P
1.3 µM | 3 of 3 | N51S R53I S92E
1.3 µM | 1 of 3 | Y30Q N33Y S55C
4.6 µM | 3 of 3 | N33C P54M D91H
250 nM | 3 of 3 | D91K S92D G94W
38 µM | 1 of 3 | D25K S26N R53N
1.3 µM | 3 of 3 | Y30S N33V Q96H
130 µM | 1 of 3 | N33R G49F S89K
no signal | 0 of 3 | G24S A32M S89K
7.7 µM | 1 of 3 | S26V R28I N52S
6.5 µM | 1 of 3 | G24I S92N F98W
5.8 µM | 2 of 3 | G24I D91A Q96C
17 µM | 1 of 3 | G24L S55H S89Y
13 µM | 2 of 3 | G49L R90E
48 µM | 1 of 3 | Y31Q G49W R90K
760 nM | 3 of 3 | S26M N52I
7.0 µM | 2 of 3 | D25H S26Q F95E
no signal | 0 of 3 | P54C R90P

Repeated from above, the 6 best binders with a signal in all replicates:

changes,Kd (apparent),detected
E23G F98T,67 nM,3 of 3
G24R Y31N S55V,120 nM,3 of 3
Y31K S55D R90I,170 nM,3 of 3
R28S N51D S92L,210 nM,3 of 3
D91K S92D G94W,250 nM,3 of 3
R53K F98Y,590 nM,3 of 3